The text below walks through data of BindingDB's records for doi:10.1006/jmbi.2001.4516 (Axys Pharmaceuticals, 2001).

The term Ki denotes the equilibrium dissociation constant of an inhibitor or competing ligand from its target.

The structures appear in SMILES notation.

The test deals with T1, Serine protease 1 (Bos taurus, UniProt P00760).
T1 sequence (P00760 whole entry): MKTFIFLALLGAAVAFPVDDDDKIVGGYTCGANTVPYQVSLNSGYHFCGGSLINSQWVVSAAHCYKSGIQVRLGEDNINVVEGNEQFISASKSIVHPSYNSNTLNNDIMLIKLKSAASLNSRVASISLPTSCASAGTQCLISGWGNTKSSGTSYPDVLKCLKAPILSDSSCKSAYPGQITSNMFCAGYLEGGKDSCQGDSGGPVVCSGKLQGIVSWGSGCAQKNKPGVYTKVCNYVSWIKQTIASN
Briefly: Enzyme Assay and Determination of the Inhibition Constants. The following applies: 22 °C. The method, then: Each enzyme was assayed with a set of different concentrations of each inhibitor. […] Ki(apparent) values were calculated from enzyme velocity curves using the software package BatchKi (BioKin Ltd, Madison, WI). These apparent inhibition constants were then converted to Ki values by assuming competitive inhibition and using the formula Ki = Ki(apparent)/(1 + S/Km).

For `N=C(N)c1ccc2nc(-c3ncccc3O)[nH]c2c1` [2-(3-HYDROXY-PYRIDIN-2-YL)-1H-BENZOIMIDAZOLE-5-CARBOXAMIDINE], the Ki runs as follows: (pH 7.2) 1900 nM; (pH 8) 43 nM.
